Membrane permeability of cyclic peptides

Data: CycPeptMPDB; original report Townsend et al. 2020, doi:10.26434/chemrxiv.13335941.v1.

PAMPA measures passive passage through an artificial lipid membrane. Permeability is given as log10 of P in cm/s; higher (less negative) is more permeable.

CCCN1CC(=O)N[C@@H](CC(C)C)C(=O)N[C@H](CC(C)C)C(=O)N2CCC[C@H]2C(=O)N(C)[C@@H](CC(C)C)C(=O)N[C@@H](Cc2ccccc2)C(=O)N2CCC[C@H]2C1=O has PAMPA -5.24 (log10 cm/s). For CC(C)C[C@H]1NC(=O)[C@H]2CCCN2C(=O)[C@H](CC(C)C)N(C)C(=O)[C@@H](CC(C)C)NC(=O)[C@H](C)N(C)C(=O)[C@H](Cc2ccccc2)NC1=O the data give PAMPA -5.05 (log10 cm/s). Listed for CCCN1CC(=O)N(C)[C@H](CC(C)C)C(=O)N(C)[C@@H](CC(C)C)C(=O)N2CCC[C@H]2C(=O)N[C@H](CC(C)C)C(=O)N[C@@H](Cc2ccccc2)C(=O)N2CCC[C@H]2C1=O: PAMPA -6.11 (log10 cm/s). CCCN1CC(=O)N(Cc2ccccc2)CC(=O)N(C)[C@H](CC(C)C)C(=O)N2CCC[C@H]2C(=O)N(C)[C@H](CC(C)C)C(=O)N[C@@H](Cc2ccccc2)C(=O)N2CCC[C@@H]2C1=O has PAMPA -5.57 (log10 cm/s). The entry for CC(C)C[C@@H]1C(=O)N[C@@H](Cc2ccccc2)C(=O)N[C@H](C)C(=O)N(C)[C@@H](CC(C)C)C(=O)N(C)[C@H](CC(C)C)C(=O)N2CCC[C@@H]2C(=O)N1C lists PAMPA -5.68 (log10 cm/s). CC(C)C[C@@H]1NC(=O)[C@H](C)NC(=O)[C@H](Cc2ccccc2)NC(=O)[C@H](CC(C)C)NC(=O)[C@H]2CCCN2C(=O)C[C@H](Cc2ccccc2)NC1=O is reported with PAMPA -6.46 (log10 cm/s). CCCN1CC(=O)N[C@H](CC(C)C)C(=O)N(Cc2ccccc2)CC(=O)N2CCC[C@@H]2C(=O)N[C@@H](CC(C)C)C(=O)N[C@@H](Cc2ccccc2)C1=O has PAMPA -5.77 (log10 cm/s). CC(C)C[C@H]1NC(=O)[C@H](C)N(C)C(=O)[C@@H]2CCCN2C(=O)[C@H](Cc2ccccc2)NC(=O)[C@@H](CC(C)C)NC(=O)[C@@H]2CCCN2C(=O)C[C@H](Cc2ccccc2)NC1=O is reported with PAMPA -6.65 (log10 cm/s).

CC(C)C[C@@H]1C(=O)N2CCC[C@H]2C(=O)N(C)[C@@H](CC(C)C)C(=O)N[C@@H](Cc2ccccc2)C(=O)N[C@H](C)C(=O)N(C)[C@H](CC(C)C)C(=O)N1C has PAMPA -5.35 (log10 cm/s). CCCN1CC(=O)N[C@@H](CC(C)C)C(=O)N[C@@H](CC(C)C)C(=O)N2CCC[C@@H]2C(=O)N(C)[C@@H](CC(C)C)C(=O)N[C@@H](Cc2ccccc2)C(=O)N2CCC[C@@H]2C1=O is reported with PAMPA -5.52 (log10 cm/s). CC(C)C[C@@H]1NC(=O)[C@@H](CC(C)C)NC(=O)[C@H](C)NC(=O)[C@H](Cc2ccccc2)NC(=O)[C@@H](CC(C)C)NC(=O)[C@H]2CCCN2C1=O has PAMPA -4.82 (log10 cm/s). The entry for CCCN1CC(=O)N[C@H](CC(C)C)C(=O)N(C)[C@@H](CC(C)C)C(=O)N2CCC[C@@H]2C(=O)N(C)[C@H](CC(C)C)C(=O)N[C@@H](Cc2ccccc2)C(=O)N2CCC[C@H]2C1=O lists PAMPA -5.36 (log10 cm/s). For CC(C)C[C@@H]1NC(=O)[C@H]2CCCN2C(=O)CN(Cc2ccccc2)C(=O)[C@H](CC(C)C)NC(=O)[C@H](C)NC(=O)[C@H]2CCCN2C(=O)[C@H](Cc2ccccc2)NC1=O the data give PAMPA -6.22 (log10 cm/s). CCCN1CC(=O)N(Cc2ccccc2)CC(=O)N(C)[C@H](CC(C)C)C(=O)N2CCC[C@@H]2C(=O)N[C@@H](CC(C)C)C(=O)N[C@@H](Cc2ccccc2)C(=O)N2CCC[C@H]2C1=O is reported with PAMPA -7.28 (log10 cm/s). For CC(C)C[C@@H]1NC(=O)C[C@H](Cc2ccccc2)NC(=O)[C@H]2CCCN2C(=O)[C@H](Cc2ccccc2)NC(=O)[C@H](CC(C)C)N(C)C(=O)[C@H]2CCCN2C(=O)[C@@H](CC(C)C)NC1=O the data give PAMPA -6.31 (log10 cm/s). For CC(C)C[C@@H]1C(=O)N(Cc2ccccc2)CC(=O)N2CCC[C@H]2C(=O)N(C)[C@H](CC(C)C)C(=O)N[C@@H](Cc2ccccc2)C(=O)N2CCC[C@H]2C(=O)N[C@@H](C)C(=O)N1C the data give PAMPA -5.80 (log10 cm/s).

The entry for CC(C)C[C@@H]1NC(=O)[C@H](C)NC(=O)[C@H](Cc2ccccc2)NC(=O)[C@@H](CC(C)C)NC(=O)[C@@H]2CCCN2C(=O)[C@@H](CC(C)C)NC1=O lists PAMPA -6.23 (log10 cm/s). For CC(C)C[C@@H]1NC(=O)C[C@H](Cc2ccccc2)NC(=O)[C@@H]2CCCN2C(=O)[C@H](Cc2ccccc2)NC(=O)[C@@H](CC(C)C)N(C)C(=O)[C@@H]2CCCN2C(=O)[C@H](CC(C)C)NC1=O the data give PAMPA -5.65 (log10 cm/s). Listed for CC(C)C[C@@H]1C(=O)N[C@H](CC(C)C)C(=O)N2CCC[C@H]2C(=O)N(Cc2ccccc2)CC(=O)N[C@@H](Cc2ccccc2)C(=O)N2CCC[C@H]2C(=O)N(C)[C@H](C)C(=O)N1C: PAMPA -5.45 (log10 cm/s).

Again, the 2 entries with the lowest PAMPA:

SMILES	PAMPA (log10 cm/s)
CCCN1CC(=O)N(Cc2ccccc2)CC(=O)N(C)[C@H](CC(C)C)C(=O)N2CCC[C@@H]2C(=O)N[C@@H](CC(C)C)C(=O)N[C@@H](Cc2ccccc2)C(=O)N2CCC[C@H]2C1=O	-7.28
CC(C)C[C@H]1NC(=O)[C@H](C)N(C)C(=O)[C@@H]2CCCN2C(=O)[C@H](Cc2ccccc2)NC(=O)[C@@H](CC(C)C)NC(=O)[C@@H]2CCCN2C(=O)C[C@H](Cc2ccccc2)NC1=O	-6.65

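Conditions beyond the assay type are not listed; see the original paper. Other peptides of the study may be missing here. Entries at the database's floor value (log10 P of -10) are not listed.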